Most compounds without a hit are left out; they make up all but 1.5% or so of the library.
Yeast UUG start-1: alters start codon recognition fidelity in yeast. S. cerevisiae UUG-firefly luciferase reporter, luminescence/redox ratio. activity score, % at 18.7 µM. 0.13% of 350,000 active. AID 602363;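 active = replicate mean at a twofold rise or more, about +100% in these data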;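 also: firefly luciferase made from a UUG start codon reports start codon fidelity; reporter light over untreated wells divided by growth signal over untreated wells; some hits fall short of that in this replicate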
eIF4H inh: human eIF4H binding inhibitors, primary screen, translation initiation inhibitor project, biochemical, uHTS, fluorescence polarization | 290,000 compounds, 0.94% hits | AID 2012, 2009 | Eukaryotic translation initiation factor 4H (Homo sapiens), Q15056 | inhibition, % at 35 µM | eIF4H fluorescence polarization binding assay;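 note: calls also rest on retests at 20 µM and on dose response follow-up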
DSG3 Ab inh: inhibitors of pemphigus antibody binding to DSG3, primary screen, biochemical, bead-based, flow cytometry, scFv-GFP | Desmoglein-3 (Homo sapiens), P32926 | DSG3-coupled beads, scFv-anti-DSG3-GFP binding; stronger effect = lower value | binding (percent of control), % at 10 µM | 310,000 compounds, 0.48% hits | AID 588358, 2011;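 active = binding more than 3 SD below its plate's average and above zero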
MLLE-PAM2 inh: inhibitors of PABP1 MLLE–PAM2 peptide binding, primary screen, biochemical, fluorescence polarization, FITC-PAM2, GST-MLLE; Polyadenylate-binding protein 1 (Homo sapiens), P11940; inhibition, % at 20 µM; 360,000 compounds, 0.36% hits; AID 588489, 2011; in the data active = inhibition above about 35%, passing the limit was not always enough
PABP polyA inh: PABP poly(A) RNA binding inhibitors, primary screen, biochemical, fluorescence polarization, uHTS; Polyadenylate-binding protein 1 (Homo sapiens), P11940; calls only at 35 µM; 290,000 compounds, 1% hits;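 note: calls also rest on retests at 20 µM and on dose response follow-up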
Yeast UUG start-2: enhancers of UUG start codon usage in yeast, dose response, S. cerevisiae, UUG firefly luciferase, cherry-pick, set 2; shares compounds with Yeast UUG start-1; luminescence, 4 h; 100% means double the DMSO signal; activation, % at 38 µM; 540 tested, under 10 active; AID 652061, 2013;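 active = signal increase whose fitted curve reaches an absolute level of 40 at a concentration under 10 µM; inactive = activity opposite to the expected increase, or the rest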
Numbers stand for hits; n = inactive; x = no result; + = active, no number. Unless noted, the rule behind the calls is not given here.

Chains of the proteins cited; added tags and fusions are not shown.
Polyadenylate-binding protein 1 (Homo sapiens), P11940, UniProt P11940, whole entry, looked up: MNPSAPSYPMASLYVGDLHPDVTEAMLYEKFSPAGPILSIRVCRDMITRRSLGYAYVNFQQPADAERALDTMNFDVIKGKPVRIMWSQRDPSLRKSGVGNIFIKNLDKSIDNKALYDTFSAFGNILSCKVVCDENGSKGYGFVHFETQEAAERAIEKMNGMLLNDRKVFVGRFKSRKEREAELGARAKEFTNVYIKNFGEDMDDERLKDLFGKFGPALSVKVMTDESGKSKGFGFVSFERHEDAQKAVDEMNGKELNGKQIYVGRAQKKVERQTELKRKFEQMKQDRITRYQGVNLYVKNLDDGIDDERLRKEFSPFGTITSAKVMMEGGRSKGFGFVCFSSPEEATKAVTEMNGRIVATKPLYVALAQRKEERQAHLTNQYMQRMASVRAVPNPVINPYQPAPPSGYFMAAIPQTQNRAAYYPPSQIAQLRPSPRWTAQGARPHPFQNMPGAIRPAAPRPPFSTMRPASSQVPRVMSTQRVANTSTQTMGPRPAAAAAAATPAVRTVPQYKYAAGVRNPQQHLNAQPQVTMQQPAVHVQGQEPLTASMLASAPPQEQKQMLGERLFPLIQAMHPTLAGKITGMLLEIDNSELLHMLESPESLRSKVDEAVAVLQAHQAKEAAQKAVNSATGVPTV

SMILES	Yeast UUG start-1	eIF4H inh	DSG3 Ab inh	MLLE-PAM2 inh	PABP polyA inh	others
CCCCn1c(O)c(C(C)=NC(C)c2ccccc2)c(=O)[nH]c1=O (stereo not drawn)	n	active	n	n	+
CCCCn1c(O)c(C(CC)=NC(C)c2ccccc2)c(=O)[nH]c1=O (stereo not drawn)	n	n	n	n	n
COc1cccc(-c2ccc([C@@H]3[C@H]4CN(C(=O)Cc5ccncc5)CCCCN4[C@H]3CO)cc2)c1	n	x	x	x	x
C=CCN1C(=O)NC(=O)/C(=C/c2cc3c4c(c2)CCCN4CCC3)C1=O	x	77	n	n	n
C=C1C(O)(c2ccccc2)C2CC[N+]1(C)CC2 (stereo not drawn)	n	n	n	n	+
C[C@@H]1CN([C@@H](C)CO)C(=O)CCCn2cc(nn2)CO[C@@H]1CN(C)C(=O)Oc1cccc2ccccc12	n	x	x	x	x
COc1ccccc1N1C(=O)NC(=O)/C(=C/c2ccc([N+](=O)[O-])s2)C1=O	x	51	n	x	+
COc1cccc(N2C(=O)NC(=O)/C(=C/c3ccc([N+](=O)[O-])s3)C2=O)c1	n	n	n	n	+
Cc1ccccc1-c1ccc([C@@H]2[C@H](CO)N3CCCCN(C(=O)Cc4ccccn4)C[C@@H]23)cc1	n	x	x	x	x
O=C(O)c1cccc2c1NC(C(=O)O)C1CC(Sc3ccccc3[N+](=O)[O-])C(Cl)C21 (stereo not drawn)	n	n	73	n	n
O=C1NC(=S)NC(=O)C1=Cc1cccn1-c1ccc(O)cc1	x	n	66	n	n
CN1C(=O)/C(=C/c2cccn2-c2ccc3ccccc3c2)C(=O)NC1=S	n	n	n	n	n
COc1ccc(C#Cc2ccc([C@H]3[C@H](CO)N4CCCCN(C(=O)Cc5cccnc5)C[C@@H]34)cc2)cc1	n	x	x	x	x
COc1ccc(C#Cc2ccc([C@@H]3[C@H]4CN(C(=O)Cc5cccnc5)CCCCN4[C@H]3CO)cc2)cc1	n	x	x	x	x
NCCc1ccccc1	n	x	n	n	x
NCCc1ccc(S(N)(=O)=O)cc1	x	active	n	n	+
CC[n+]1c(/C=C/C=C/c2ccc(N(C)C)cc2)sc2ccccc21	100	n	n	n	n	Yeast UUG start-2=n
CN(C)c1ccc(/C=C/C=C/c2sc3ccccc3[n+]2C)cc1	n	n	n	n	n
COc1ccc(C#Cc2ccc([C@H]3[C@@H](CO)N4CCCCN(C(=O)Cc5ccncc5)C[C@@H]34)cc2)cc1	n	x	x	x	x
O=C(c1ccccc1)c1cn(CC(=O)N2CCOCC2)c2ccccc12	n	n	n	n	n	Yeast UUG start-2=n

Compound activity (PubChem BioAssay)
